## Antibody variant affinities, Ab-95 light chain, assay 2

The measurements come from Engelhart et al. 2022 (doi:10.1038/s41597-022-01779-4) through the FLAb antibody collection.

Binding partner: SARS-CoV-2 spike HR2 peptide, sequence PDVDLGDISGINAS.

Parent scFv Ab-95: VH joined to VL by a 15-residue (Gly4Ser)3 linker. Changes lie in the light chain CDRs alone.
VH: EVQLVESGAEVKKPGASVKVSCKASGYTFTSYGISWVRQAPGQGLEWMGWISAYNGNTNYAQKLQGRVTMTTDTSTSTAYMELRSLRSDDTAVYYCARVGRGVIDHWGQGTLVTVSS
VL: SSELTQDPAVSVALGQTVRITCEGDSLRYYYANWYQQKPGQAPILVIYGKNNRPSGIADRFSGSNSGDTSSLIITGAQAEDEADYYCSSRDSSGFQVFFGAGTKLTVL

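Variants in AAYL52 differ from the parent at up to three CDR positions; double and triple changes were sampled at random. Affinity was read by AlphaSeq, a pooled yeast mating assay with surface-displayed partners. Pairs that bind mate more often; barcode pairs of the diploids are counted by sequencing. A regression on co-assayed BCL2-family reference pairs converts the normalised counts of each replicate to an apparent Kd. The assay was run in three technical replicates.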

Each variant is given by its three light chain CDRs, as the data file delimits them; those of the parent are EGDSLRYYYAN, GKNNRPS, SSRDSSGFQVF. Numbers give log10(Kd / nM), so 0 is 1 nM and 3 is 1 µM. Smaller is tighter. A mean of the replicates is given; it leaves out those without a signal. A pair that was not seen in any replicate is written "no signal"; this usually means weak binding, but a binder can also be missed. Nonspecific signal, from three strains lacking the peptide, appeared in 28% of pairings of library AAYL52, centred on 3.91 (5% of these signals below 2.90); values are not corrected for it. Also given: how often the same scFv was detected with the empty control strains. Parent in this assay: reference entry 2.31, copy in this library 2.25.

mean log10 Kd (nM)	seen in	control signals	CDR-L1	CDR-L2	CDR-L3
no signal	0 of 3	2 of 9	EGDSLRYYYHN	GKNNRPS	ISRDSSGFQVI
3.02	3 of 3	4 of 9	ELDSLRYYYAI	GKNNRPS	SSRDSSGFQVF
3.74	2 of 3	0 of 9	EGDSLRYYYWN	GCNNRPS	SSHDSSGFQVF
2.41	3 of 3	2 of 9	EGDDLNYYYAN	GKNNRPI	SSRDSSGFQVF
2.83	3 of 3	2 of 9	EGDACRYYYAN	GKNNRSS	SSRDSSGFQVF
2.74	1 of 3	0 of 9	EGDELRYYYKN	GTNNRPS	SSRDSSGFQVF
2.90	3 of 3	2 of 9	EGDSLRYYVAN	GMNNRPS	SSRDSSGFQVF
3.81	1 of 3	1 of 9	EGDSLRYYYAN	GKNNRPS	VSRDSSGFWVF
no signal	0 of 3	2 of 9	EGDSHRYYYAN	GKNNRPS	SSRDSSGWTVF
no signal	0 of 3	0 of 9	EGDSLWYYYAN	GKNNRPS	ISRDSSGFQFF
3.45	3 of 3	5 of 9	EGDSLRRYYAN	GENNRPS	SSRDSSGCQVF
no signal	0 of 3	1 of 9	EGDSLRYYYHN	GKYNRPS	SSRGSSGFQVF
2.97	3 of 3	1 of 9	EGDSLRYYYAN	GKNNRPS	KSRDHSGNQVF
4.03	2 of 3	2 of 9	EGDDLRYYYAN	IKNNRPS	SSRDSSGFQVF
2.93	3 of 3	1 of 9	EGDSLRYYYAN	GKNNRVS	SSRDSKGFQVH
no signal	0 of 3	1 of 9	EGDCLRYYYAN	CKNNRPS	SSTDSSGFQVF
2.73	3 of 3	4 of 9	EGDSLRYYYAN	GKNNRPS	SSRDSSAFQVW
3.07	1 of 3	1 of 9	EGDYCRYYYAN	GKNNLPS	SSRDSSGFQVF
2.99	3 of 3	1 of 9	EGDSLRPYYAN	GKNNRPY	SSRDRSGFQVF
4.19	1 of 3	4 of 9	EGDSLRYYYAE	GMNNRPS	SSRDSSGIQVF
3.72	2 of 3	2 of 9	EGDSLHYYYAN	GKNNRPS	SSRRSSGFQVF
3.50	2 of 3	2 of 9	EGDSLRYYYFN	GKTNRPS	SSRDSVGFQVF
4.66	2 of 3	4 of 9	NCDSLRYYYAN	GKQNRPS	SSRDSSGFQVF
2.50	3 of 3	4 of 9	EGDSLRYWYAN	GKNPRPS	SSRDSSGFQAF
3.97	1 of 3	2 of 9	EGDSLRYYYAN	GKNNRFS	SSTASSGFQVF
1.33	3 of 3	0 of 9	EGYSLRYYTAN	GKNQRPS	SSRDSSGFQVF
3.37	1 of 3	1 of 9	CGDSLRYYYAN	GKNNVPD	SSRDSSGFQVF
4.42	1 of 3	6 of 9	EGDSLRYYYAK	GMNNRES	SSRDSSGFQVF
2.35	3 of 3	2 of 9	EGDSLRYYYAL	GANNRPS	SSRDSSGRQVF
4.03	1 of 3	1 of 9	EGDWLRYYYAN	GKNNRNS	SSIDSSGFQVF
3.42	1 of 3	0 of 9	EGDSLRYYYDN	GKNNRPS	SSRDSSGFYEF
4.97	2 of 3	2 of 9	EPDSLRYYYAN	GKNNRPL	SSMDSSGFQVF
2.06	3 of 3	4 of 9	EGDSLRFYKAN	GKNNRPS	SSRDSSGFQCF
3.97	3 of 3	2 of 9	EGDSLRYYYIN	GKNNRPS	SSRDSSGFMAF
2.95	3 of 3	2 of 9	EGDSLRYYYAN	GKNNRPC	SSRDSAGFQVA
2.88	3 of 3	3 of 9	EGASMRYYYAV	GKNNRPS	SSRDSSGFQVF
4.23	3 of 3	2 of 9	LGDQLRWYYAN	GKNNRPS	SSRDSSGFQVF
1.08	3 of 3	8 of 9	EGDSLRYYEAN	GMNNRPS	SSRDSSGFQVF
3.07	2 of 3	0 of 9	EGDSLRYYYAN	GKNNRPS	TSRDSPVFQVF
4.16	3 of 3	4 of 9	EGDSLRAYYAN	QKVNRPS	SSRDSSGFQVF
no signal	0 of 3	0 of 9	EGDSLRCYYIN	GKNNRGS	SSRDSSGFQVF
4.30	2 of 3	5 of 9	EGCSLMYYYAV	GKNNRPS	SSRDSSGFQVF
2.80	3 of 3	8 of 9	EGDSLRYYYAN	GKNNRPS	SSADMSGFTVF
3.25	1 of 3	1 of 9	EGDSLRYYYAN	YKNNRES	SSRDSSGFFVF
3.10	3 of 3	4 of 9	EGDKLPYRYAN	GKNNRPS	SSRDSSGFQVF
2.18	3 of 3	0 of 9	EGDSLREYYAN	GKNNRPS	PSRDSSGFQVF
3.92	1 of 3	3 of 9	EGDSYRYYYAW	GKNNRPS	SSRDSSGFQDF
3.66	3 of 3	2 of 9	EGCWLRYYYAN	GKNNRPS	SSRDSSGFQVW

Excerpt, the final 7 entries:

CDR-L1	CDR-L2	CDR-L3	mean log10 Kd (nM)	seen in	control signals
EGCSLMYYYAV	GKNNRPS	SSRDSSGFQVF	4.30	2 of 3	5 of 9
EGDSLRYYYAN	GKNNRPS	SSADMSGFTVF	2.80	3 of 3	8 of 9
EGDSLRYYYAN	YKNNRES	SSRDSSGFFVF	3.25	1 of 3	1 of 9
EGDKLPYRYAN	GKNNRPS	SSRDSSGFQVF	3.10	3 of 3	4 of 9
EGDSLREYYAN	GKNNRPS	PSRDSSGFQVF	2.18	3 of 3	0 of 9
EGDSYRYYYAW	GKNNRPS	SSRDSSGFQDF	3.92	1 of 3	3 of 9
EGCWLRYYYAN	GKNNRPS	SSRDSSGFQVW	3.66	3 of 3	2 of 9